Experimental data from US20080119432, “Inhibition Of Metallo-Beta-Lactamase By Rna” (published 2008).

T1: metallo-beta-lactamase (beta-lactamase II, 5/B/6) (Bacillus cereus 5/B/6) (UniProt P14488)
T1 sequence: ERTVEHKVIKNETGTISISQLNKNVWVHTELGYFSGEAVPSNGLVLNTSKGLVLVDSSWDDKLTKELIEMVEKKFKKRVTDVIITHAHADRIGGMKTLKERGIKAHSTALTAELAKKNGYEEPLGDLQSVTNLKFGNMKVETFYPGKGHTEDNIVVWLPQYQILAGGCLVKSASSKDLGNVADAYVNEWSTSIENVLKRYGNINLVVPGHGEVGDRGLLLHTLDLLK

T2: metallo-beta-lactamase (beta-lactamase II, 5/B/6) (Bacillus cereus 5/B/6, UniProt P14488 SEQ:2-228)
T2 sequence: T1 sequence


Experiments:
[1] = target: T1, metallo-beta-lactamase (beta-lactamase II, 5/B/6) (Bacillus cereus 5/B/6); experiment: inhibition; details: preliminary; random pool before first SELEX round; 4.3 mM cephalosporin C, 50 mM MOPS pH 7.0
[2] = target: T2, metallo-beta-lactamase (beta-lactamase …); experiment: inhibition; 4.3 mM cephalosporin C, 50 mM MOPS pH 7.0; details: tags: expressed in E. coli TAP56 from pRE2/bla

| Molecule | IC50 [1] | IC50 [2] |
| --- | --- | --- |
| GGGAACAGUCCGAGCCNNNNNNNNNNNNNNNNNNNNNNNNNNNNNNCGCGCGGAGCUCGCG [random pool RNA (30 nt randomized)] | 0.021 nM |  |
| GGGUCUGGCCC (ssRNA) [11-mer RNA] |  | 430 nM |
